Reference: patent US20240024647A1, “MUCOSA PERFORATION” (LTS LOHMANN THERAPIE-SYSTEME AG, priority 2020, published 2024)

Assay: In vitro permeation by Franz diffusion cells, dissolving microneedle system loaded with active ingredient, applied into the mucosa versus in reverse
Settings: dissolving microneedle system loaded with adrenalin hydrogen tartrate; acceptor phosphate buffer pH 6.0 + 0.1 wt. % L-ascorbic acid; FIG. 6

Compound: CNCC(O)c1ccc(O)c(O)c1.O=C(O)C(O)C(O)C(=O)O (stereo not shown) [adrenalin hydrogen tartrate]
- active ingredient flux with the microneedle system applied in the mucosa, factor higher in comparison to the system without penetration into the mucosa: 4
